Consider 100 compounds from PubChem BioAssay AID602332 (National Center for Advancing Translational Sciences (NCATS), 2012).

Where “and” joins values, the source holds several entries; their conditions need not be identical. Identical values can stand only once. Only a part is listed here, and it is no random draw. Calls of active or inactive are those of the source. Calls follow the shape of the dose curve; as a rule, active = well fitted activation curve with a large enough effect; inconclusive = small, poorly fitted or top-dose-only effect; inactive = no such curve, though single readings can be large or run the other way.

The nature of the experiment: qHTS for Inducers of the Endoplasmic Reticulum Stress Response (ERSR) in Human Glioma: qHTS. Also: % of control where 0% means no effect; nearly all actives have a fitted effect of over 35% in size. The note with it: U87-MG GRP78 promoter luciferase reporter, 16 h; active compounds read high. For orientation: qHTS replaces the single test concentration by a dilution series.
Consider `COc1ccc(OP(C)(=O)Nc2ccccc2Br)cc1` (stereo not given), for which the activation was inactive: -4.05%. With `COc1ccccc1OP(C)(=O)Nc1ccc(C)c(C)c1` (stereo not given), the activation was inactive: -1.44%. `Cc1cc(C)cc(OP(C)(=O)Nc2cccc(C(F)(F)F)c2)c1` (stereo not given): the activation is inactive: -5.63%. On to `CP(=O)(Nc1ccc(Cl)cc1Cl)Oc1ccccc1` (stereo not given), for which the activation is inactive: -0.771%. For `CCCCCCCCCCCCCCCC1C[N+](C)(C)CCOP(C)(=O)O1` (stereo not given), the activation is inactive: -4.64%. As to `CP(=O)(OCCOc1ccccc1)OCCOc1ccccc1`, the activation is inactive: -2.72%. To `CN(C)CCOC(=O)C(O)(c1ccccc1)C1CCCC1` (stereo not given) belongs inactive: -4.73%; to `COc1ccc(OP(C)(=O)Nc2ccccn2)cc1` (stereo not given), inactive: -0.631%; to `COc1ccccc1OP(C)(=O)Nc1ccc(Br)cc1` (stereo not given), inactive: 2.6%. The value for `CCc1ccc(OP(C)(=O)O)cc1` was inactive: -1.29%; that for `COc1ccccc1OP(C)(=O)Nc1ccc(C)cc1C` (stereo not given) was inactive: 1.14%. Turning to `CP(=O)(Nc1ccccn1)Oc1ccccc1` (stereo not given), the activation is inactive: -3.13%. Turning to `Cc1c(NP(C)(=O)Oc2ccc(C(C)C)cc2)c(=O)n(-c2ccccc2)n1C` (stereo not given), the activation is inactive: -2.34%. As to `O=[N+]([O-])c1cc([N+](=O)[O-])c(Nc2ccccn2)c([N+](=O)[O-])c1`, the activation is inactive: -12.2%. In the case of `CCc1ccc(OP(C)(=O)Nc2cccnc2)cc1` (stereo not given), the activation was inactive: -5.26%. `CP(=O)(Oc1ccccc1)N1CCOC1=O` (stereo not given): the activation is inactive: 3.59%. The value for `OCCSCCO` was inactive: -1.72%; that for `O=C(OCCCN1CCCC1)C(O)(c1ccccc1)C1CCCCC1` (stereo not given) was inactive: -1.2%; that for `COc1ccccc1OP(C)(=O)Nc1c(C)n(C)n(-c2ccccc2)c1=O` (stereo not given) was inactive: -3%. Regarding `COc1ccc(OP(C)(=O)Nc2ccc(Br)cc2)cc1` (stereo not given), the activation is inactive: -4.03%.

As for `CCN(CC)CC(O)COC(=O)C(O)(c1ccccc1)C1CCCCC1` (stereo not given), the activation was inactive: -6.24%. Regarding `CN(C)C(=O)c1c([N+](=O)[O-])cc([N+](=O)[O-])cc1[N+](=O)[O-]`, the activation is inactive: -8.14%. Consider `CP(=O)(Nc1ccc(Cl)cc1)Oc1ccc(F)cc1` (stereo not given), for which the activation is inactive: -4.45%. As to `COc1ccccc1OP(C)(=O)Nc1ccccc1Br` (stereo not given), the activation is inactive: 4.75%. In the case of `CC(C)(C)c1ccc(OP(C)(=O)O)cc1`, the activation is inactive: -5.44%. The value for `CP(=O)(OC12CC3CC(CC(C3)C1)C2)OC12CC3CC(CC(C3)C1)C2` was inactive: -3.66%; that for `CCOC(=O)c1ccc(NP(C)(=O)Oc2ccc(Cl)cc2)cc1` (stereo not given) was inactive: -2.63%.

As to `Nc1ccc2c(ccc3cccnc32)n1.O=[N+]([O-])c1cc([N+](=O)[O-])c(O)c([N+](=O)[O-])c1`, the activation was inactive: -3.3%.

In the case of `CC(C)OP(=O)(F)OC(C)C`, the activation was inactive: -3.7%. The value for `C/C1=C2N=C(/C=C3N=C(/C(C)=C4\[N-][C@@](C)([C@H]5N=C1[C@@](C)(CCC(=O)NC[C@H](C)OP(=O)([O-])O[C@@H]1[C@H](O)[C@H](n6cnc7cc(C)c(C)cc76)O[C@@H]1CO)[C@@H]5CC(N)=O)[C@](C)(CC(N)=O)[C@H]4CCC(N)=O)[C@@](C)(CC(N)=O)[C@@H]\3CCC(N)=O)C(C)(C)[C@@H]/2CCC(N)=O.[C-]#N.[Co+3]` was inactive: -5.82%; that for `COc1ccc(NP(C)(=O)Oc2ccccc2OC)cc1` (stereo not given) was inactive: 0.335%. To `CN(C)CCOC(=O)C(O)(c1ccccc1)C1CCCCC1` (stereo not given) belongs inactive: -1.86%. For `COc1ccc(OP(C)(=O)Nc2cccc(Br)c2)cc1` (stereo not given), the activation is inactive: -2.75%.

With `Cc1c(C(c2ccc3c(c2)OCO3)c2c(C)n(C)n(-c3ccccc3)c2=O)c(=O)n(-c2ccccc2)n1C.O=[N+]([O-])c1cc([N+](=O)[O-])c(O)c([N+](=O)[O-])c1`, the activation is inactive: -5.23%.

For `Cc1cc(-c2cccc3ccccc23)c(C)cn1.O=[N+]([O-])c1cc([N+](=O)[O-])c(O)c([N+](=O)[O-])c1`, the activation was inactive: 2.68%. Consider `O=[N+]([O-])c1ccc(OP2(=O)COCCO2)cc1` (stereo not given), for which the activation was inactive: -0.48%.

Take `CCOP(C)(=S)SCC(=O)NC(C)(CC)C(=O)O` (stereo not given): the activation was inactive: -3.34%. On to `CP(=O)(Nc1ccc(SC(F)(F)F)cc1)Oc1ccc(F)cc1` (stereo not given), for which the activation is inactive: -3.52%. The value for `Cc1ccccc1NP(C)(=O)Nc1ccccc1C` was inactive: -0.948%; that for `CCN(CCCl)Cc1ccccc1C` was inactive: -1.85%. In the case of `CP(=O)(Nc1ccc2c(c1)OCCO2)Oc1ccccc1` (stereo not given), the activation is inactive: -4.41%. To `CC(C)c1ccc(OP(C)(=O)Nc2ccc(SC(F)(F)F)cc2)cc1` (stereo not given) belongs inactive: 5.23%; to `CP(=O)(Nc1ccccc1F)Oc1ccccc1` (stereo not given), inactive: 3.35%. To `CCOP(=O)(CC)Oc1ccc([N+](=O)[O-])cc1` (stereo not given) belongs inactive: -4.44%.

For `O=C(OCCN1CCN(CCOCc2ccccc2)CC1)C(O)(c1ccccc1)c1ccccc1`, the activation was inactive: -1.84%. To `COc1ccc(OP(C)(=O)Nc2ccc(SC(F)(F)F)cc2)cc1` (stereo not given) belongs inactive: 3.63%. For `CCOC(=O)c1ccc(NP(C)(=O)Oc2ccc(F)cc2)cc1` (stereo not given), the activation is inactive: -1.75%. As to `Cc1cccc([N+](=O)[O-])c1[N+](=O)[O-]`, the activation was inactive: -0.613%. Regarding `CCCCCOc1ccc(NP(C)(=O)Oc2ccc(Cl)cc2Cl)cc1` (stereo not given), the activation is inactive: -3.12%.

Regarding `CP(=O)(Nc1ccccc1)Oc1ccc(F)cc1` (stereo not given), the activation was inactive: -3.37%. With `CCN(CC)CCCOC(=O)C(O)(c1ccccc1)C1CCCCC1` (stereo not given), the activation is inactive: -1.27%. As to `Cc1c([N+](=O)[O-])cc([N+](=O)[O-])c(Br)c1[N+](=O)[O-]`, the activation was inactive: -2.57%. Take `O=[N+]([O-])c1cccc([N+](=O)[O-])c1`: the activation was inactive: 4.31% and inactive: -4.23%. Turning to `O=[N+]([O-])OCC(CO[N+](=O)[O-])(CO[N+](=O)[O-])CO[N+](=O)[O-]`, the activation was inactive: -3.49%. To `CC1=NCCc2c1[nH]c1ccccc21.O=[N+]([O-])c1cc([N+](=O)[O-])c(O)c([N+](=O)[O-])c1` belongs inactive: -1.94%. To `Cc1cc(C)cc(OP(C)(=O)Nc2ccc(C)cc2C)c1` (stereo not given) belongs inactive: -2.69%; to `CCOC(=O)c1ccc(NP(C)(=O)Oc2cc(C)cc(C)c2)cc1` (stereo not given), inactive: -3.97%; to `COc1ccccc1OP(C)(=O)Nc1cccc(Br)c1` (stereo not given), inactive: -3.84%. In the case of `Cc1cc(C)cc(OP(C)(=O)Nc2ccccn2)c1` (stereo not given), the activation is inactive: 2.33%. Regarding `CP(=O)(Nc1cccc(Br)c1)Oc1ccccc1` (stereo not given), the activation is inactive: -2.63%. To `Cc1ccc(C)c(NP(C)(=O)Oc2ccccc2)c1` (stereo not given) belongs inactive: 2.75%; to `CC(C)N(CCCl)C(C)C`, inactive: -4.6%.

Take `CN(Cc1cccnc1)C(=O)COc1ccc(Cl)c(Cl)c1.O=[N+]([O-])c1cc([N+](=O)[O-])c(O)c([N+](=O)[O-])c1`: the activation was inactive: 1.75%. Regarding `O=[N+]([O-])c1cc([N+](=O)[O-])c(-n2nnc3ccccc32)c([N+](=O)[O-])c1`, the activation was inactive: -2.04%.

As for `Cc1nc2ccc3ccccc3c2s1.O=[N+]([O-])c1cc([N+](=O)[O-])c(O)c([N+](=O)[O-])c1`, the activation was inactive: -0.123%. Turning to `O=[N+]([O-])c1cc([N+](=O)[O-])c(-c2cnn(-c3ccccc3)c2)c([N+](=O)[O-])c1`, the activation was inactive: -6.27%. Turning to `CC1=C2N=C(C=C3N=C(C(C)=C4[N-][C@@](C)([C@@H]5N=C1[C@](C)(CCC(=O)NC[C@@H](C)OP(=O)([O-])O[C@H]1[C@@H](O)[C@@H](n6cnc7cc(C)c(C)cc76)O[C@@H]1CO)[C@H]5CC(N)=O)[C@@](C)(CC(N)=O)[C@@H]4CCC(N)=O)[C@@](C)(CC(N)=O)[C@@H]3CCC(N)=O)C(C)(C)[C@@H]2CCC(N)=O.[C-]#N.[Co+3]`, the activation was inactive: -4.74%.

Regarding `O=[N+]([O-])c1cc([N+](=O)[O-])c(Nc2nnnn2CCO)c([N+](=O)[O-])c1`, the activation was inactive: -2.85%. To `CCCOc1ccc(NP(C)(=O)Oc2ccc(Cl)cc2)cc1` (stereo not given) belongs inactive: 8.68%; to `CP(=O)(Nc1ccc(SC(F)(F)F)cc1)Oc1ccccc1` (stereo not given), inactive: -2.49%; to `COc1ccccc1OP(C)(=O)Nc1c(C)cccc1C` (stereo not given), inactive: -4.63%. As for `CN1CCCCC1COC(=O)C1(O)c2ccccc2CCc2ccccc21` (stereo not given), the activation is inactive: -3.53%. Take `COc1ccccc1OP(C)(=O)Nc1ccccc1` (stereo not given): the activation is inactive: -6%. As for `CP(=O)(Nc1ccccc1Br)Oc1ccccc1` (stereo not given), the activation was inactive: -4.28%. On to `CP(=S)(Nn1cnnc1)Oc1ccccc1` (stereo not given), for which the activation was inactive: -2.43%. With `Cc1cc(C)cc(OP(C)(=O)Nc2ccc(SC(F)(F)F)cc2)c1` (stereo not given), the activation was inactive: -0.774%.

Take `CP(=O)(NC(=O)Nc1ccccc1)Oc1ccccc1` (stereo not given): the activation was inactive: -2.18%.

`CCc1ccc(OP(C)(=O)N2CCN(c3ccc([N+](=O)[O-])cc3)CC2)cc1` (stereo not given): the activation was inactive: -0.402%. For the compound `CP(=O)(Oc1ccccc1)OC(c1ccccc1)C(F)(F)F` (stereo not given), the activation is inactive: -2.7%.

Turning to `Cc1cccc(C)c1OP(C)(=O)Nc1ccc(SC(F)(F)F)cc1` (stereo not given), the activation is inactive: -5.08%. For the compound `CP(=O)(Nc1ccc(SC(F)(F)F)cc1)Oc1ccc(Cl)cc1` (stereo not given), the activation was inactive: -5.92%. Turning to `CP(=O)(Nc1ccccn1)Oc1ccc(Cl)cc1` (stereo not given), the activation is inactive: -3.87%. The value for `CCOP(C)(=S)SCC(=O)NC(C)C(=O)O` (stereo not given) was inactive: -2.78%. Consider `CN(C)CCS`, for which the activation is inactive: -3.36%. As for `CCOC(=O)c1ccc(NP(C)(=O)Oc2ccc(OC)cc2)cc1` (stereo not given), the activation is inactive: 1.45%.

Take `O=[N+]([O-])c1cc([N+](=O)[O-])c(O)c([N+](=O)[O-])c1.c1ccc(Oc2ccncc2)cc1`: the activation was inactive: -2.18%. On to `CCN(CC)CCCOC(=O)C(O)(c1ccccc1)c1ccccc1`, for which the activation is inactive: -4.95%. As for `O=[N+]([O-])[O-].[NH4+]`, the activation is inactive: -3.99%.

As to `Cc1cccc(C)c1OP(C)(N)=O` (stereo not given), the activation was inactive: 0.213%. `O=C(O)C(O)(c1ccccc1)c1ccccc1`: the activation is inactive: -3%. To `CC(C)(C)c1ccc(OP(C)(=O)Nc2ccc(SC(F)(F)F)cc2)cc1` (stereo not given) belongs inactive: -7.28%. In the case of `O=[N+]([O-])c1ccc2c(c1)C=Nc1ccccc1O2`, the activation is inactive: -2.23%. In the case of `O=[N+]([O-])c1cc([N+](=O)[O-])c(Nc2cccnc2)c([N+](=O)[O-])c1`, the activation is inactive: -5.93%. To `O=C(O)C1(O)c2ccccc2-c2ccccc21` belongs inactive: 1.15%; to `COc1ccc(OP(C)(=O)Nc2cccc(F)c2)cc1` (stereo not given), inactive: -4.35%.

As for `COc1ccccc1OP(C)(=O)Nc1cc(Cl)ccc1C` (stereo not given), the activation was inactive: -3.48%. Regarding `Cc1cc(C)cc(OP(C)(N)=O)c1` (stereo not given), the activation is inactive: -2.85%. As for `CCOC(=O)c1ccc(NP(C)(=O)Oc2ccccc2)cc1` (stereo not given), the activation is inactive: -1.72%. With `Cc1ccc(NP(C)(=O)Oc2ccccc2)c(C)c1` (stereo not given), the activation is inactive: 0.719%.

Consider `COc1ccccc1OP(C)(=O)Nc1ccc(C)cc1` (stereo not given), for which the activation was inactive: 0.736%.
